## Ab-91 heavy chain CDR variants: yeast mating affinities

Reference: Engelhart et al. 2022, doi:10.1038/s41597-022-01779-4. File: FLAb, binding data.

Binding partner: SARS-CoV-2 spike HR2 peptide, sequence PDVDLGDISGINAS.

Parent scFv Ab-91: VL joined to VH by a (GGGGS)3 linker. Changes lie in the heavy chain CDRs alone.
VL: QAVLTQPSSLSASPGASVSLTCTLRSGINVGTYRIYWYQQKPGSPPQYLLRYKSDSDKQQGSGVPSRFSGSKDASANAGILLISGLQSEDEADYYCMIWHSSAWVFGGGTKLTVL
VH: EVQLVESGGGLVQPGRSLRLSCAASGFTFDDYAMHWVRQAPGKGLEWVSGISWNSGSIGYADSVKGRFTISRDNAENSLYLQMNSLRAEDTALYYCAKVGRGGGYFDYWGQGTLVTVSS

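In library AAYL51, one, two or three CDR residues were substituted; doubles and triples were drawn at random. The scFvs were displayed on barcoded MATa yeast, the peptide on MATalpha yeast. Binding brings cells together so that they mate, and sequencing counts the barcode pairs among the diploids. Scores were corrected for input abundance and mapped to Kd with protein pairs of known affinity run in the same pool. Mating was done three times.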

The whole VH of each variant is written out.
The read-out is the apparent dissociation constant on a log10 scale (nM): the lower, the stronger.
Averages over replicates are reported, and they cover detected replicates only.
"no signal" marks a missing value. The strain was present, yet no cells mated with the target were sequenced in any replicate, which points to weak or no binding.
For reference, the parent read 1.86 as the reference entry and 0.88 as a member of this library.
Three control strains display no target. For library AAYL51, 21% of the pairings with them gave a signal, with a median of 4.54 and one signal in twenty below 3.26, so weak values seen in few replicates may be background. For each scFv, signals with the empty controls are counted beside the result.

| # | VH | mean log10 Kd (nM) | seen in | empty controls |
|---|---|---|---|---|
| 1 | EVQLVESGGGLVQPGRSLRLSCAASGFTFDDYCMHWVRQAPGKGLEWVSGIDWNSGSIGYADSVKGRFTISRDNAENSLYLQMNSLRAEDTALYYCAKVGRGGEYFDYWGQGTLVTVSS | 5.44 | 3/3 | 6/9 |
| 2 | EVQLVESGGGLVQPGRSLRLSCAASGCTFDDIAMHWVRQAPGKGLEWVSGISWNSGSIHYADSVKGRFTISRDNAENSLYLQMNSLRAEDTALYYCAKVGRGGGYFDYWGQGTLVTVSS | 5.94 | 1/3 | 1/9 |
| 3 | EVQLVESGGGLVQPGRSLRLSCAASGFTFDDYAMHWVRQAPGKGLEWVSGISWQSGSIGYADNVKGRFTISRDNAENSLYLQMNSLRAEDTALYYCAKVGRGRGYFDYWGQGTLVTVSS | no signal | 0/3 | 2/9 |
| 4 | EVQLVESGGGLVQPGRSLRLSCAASGFTFDDYAMHWVRQAPGKGLEWVSGISWNSGVIGFADSVKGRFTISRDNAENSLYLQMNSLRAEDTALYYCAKVGRGGGYFDYWGQGTLVTVSS | 5.14 | 2/3 | 2/9 |
| 5 | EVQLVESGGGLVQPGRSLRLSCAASGFTFDDYAMHWVRQAPGKGLEWVSGIMWNSVSIGYADSVKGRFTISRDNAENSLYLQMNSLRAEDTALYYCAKLGRGGGYFDYWGQGTLVTVSS | 5.15 | 3/3 | 6/9 |
| 6 | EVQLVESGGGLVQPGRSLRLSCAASGFTFDDYAMHWVRQAPGKGLEWVSGISWNSGLIGYAHSDKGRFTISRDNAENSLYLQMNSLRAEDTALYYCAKVGRGGGYFDYWGQGTLVTVSS | no signal | 0/3 | 1/9 |
| 7 | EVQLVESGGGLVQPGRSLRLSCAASGFTFDDYADHWVRQAPGKGLEWVSGISWYSGSIIYADSVKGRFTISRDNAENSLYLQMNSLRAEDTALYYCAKVGRGGGYFDYWGQGTLVTVSS | 5.24 | 2/3 | 5/9 |
| 8 | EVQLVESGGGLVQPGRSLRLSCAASGFTFDDYAMHWVRQAPGKGLEWVSGISWNSGSCGYAMSVKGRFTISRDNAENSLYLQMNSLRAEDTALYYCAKVGRGGGLFDYWGQGTLVTVSS | 3.86 | 3/3 | 1/9 |
| 9 | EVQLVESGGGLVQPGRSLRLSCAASGFTFDDYAMHWVRQAPGKGLEWVSDISWRSGSIGYADSVKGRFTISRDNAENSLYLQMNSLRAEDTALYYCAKVGRYGGYFDYWGQGTLVTVSS | no signal | 0/3 | 2/9 |
| 10 | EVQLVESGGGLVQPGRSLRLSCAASGFTFDDYAMHWVRQAPGKGLEWVSGWSWNSGSWGYADSVKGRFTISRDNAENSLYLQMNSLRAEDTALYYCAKVGRGGGYFMYWGQGTLVTVSS | no signal | 0/3 | 0/9 |
| 11 | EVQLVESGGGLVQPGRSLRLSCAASGFTFDIYAMHWVRQAPGKGLEWVSGISWNSGSIGWADSNKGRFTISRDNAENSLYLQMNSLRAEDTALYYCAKVGRGGGYFDYWGQGTLVTVSS | no signal | 0/3 | 0/9 |
| 12 | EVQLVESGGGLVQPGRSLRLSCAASGFWFDHYAMHWVRQAPGKGLEWVSGISWNSGSIGYADSVKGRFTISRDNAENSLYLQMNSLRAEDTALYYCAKVGRGGGYFHYWGQGTLVTVSS | 1.99 | 3/3 | 5/9 |
| 13 | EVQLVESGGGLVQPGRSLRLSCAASGFTFDDYAMHWVRQAPGKGLEWVSGISWNSYSIGEADSVKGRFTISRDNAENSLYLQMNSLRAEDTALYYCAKVGRGGGYFDYWGQGTLVTVSS | 3.41 | 1/3 | 0/9 |
| 14 | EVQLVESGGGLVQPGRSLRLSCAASGFTFDDYAMHWVRQAPGKGLEWVSGISWNSGSIGYADSPKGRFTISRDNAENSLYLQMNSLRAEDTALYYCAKVGKGGGYFDYWGQGTLVTVSS | 4.91 | 3/3 | 7/9 |
| 15 | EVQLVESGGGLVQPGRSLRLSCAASGPTFDDYAMHWVRQAPGKGLEWVSGISWNYGSIGYADSVKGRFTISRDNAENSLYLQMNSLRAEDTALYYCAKVGRGGGSFDYWGQGTLVTVSS | no signal | 0/3 | 0/9 |
| 16 | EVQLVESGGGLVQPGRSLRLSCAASGFGFDDYAMHWVRQAPGKGLEWVSGIHWNSGSIGYADSVKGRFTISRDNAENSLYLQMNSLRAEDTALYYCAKVGRGGGYFYYWGQGTLVTVSS | no signal | 0/3 | 1/9 |
| 17 | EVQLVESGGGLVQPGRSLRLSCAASGYTFDDMAMHWVRQAPGKGLEWVSGISWNSGSIGYAASVKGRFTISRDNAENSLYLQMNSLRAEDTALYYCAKVGRGGGYFDYWGQGTLVTVSS | no signal | 0/3 | 0/9 |
| 18 | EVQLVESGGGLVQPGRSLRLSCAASGFTFDDYAMHWVRQAPGKGLEWVSGISWNQGSWGYADSVKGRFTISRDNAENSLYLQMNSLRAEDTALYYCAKVGRGGGMFDYWGQGTLVTVSS | no signal | 0/3 | 0/9 |
| 19 | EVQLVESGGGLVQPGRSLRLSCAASGFTFYHAAMHWVRQAPGKGLEWVSGISWNSGSIGYADSVKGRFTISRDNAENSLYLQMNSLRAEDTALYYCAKVGRGGGYFDYWGQGTLVTVSS | 1.36 | 3/3 | 2/9 |
| 20 | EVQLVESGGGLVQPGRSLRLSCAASGFTFDDYARHWVRQAPGKGLEWVSGITWNSGSIGYADSVKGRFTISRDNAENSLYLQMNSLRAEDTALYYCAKVGRGGGYFDYWGQGTLVTVSS | 3.96 | 1/3 | 0/9 |
| 21 | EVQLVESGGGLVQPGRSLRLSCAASGFTFDDFAMHWVRQAPGKGLEWVSGISWNSGSIGYADSVKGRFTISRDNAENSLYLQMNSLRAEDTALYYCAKQGRGGGYGDYWGQGTLVTVSS | 4.21 | 1/3 | 2/9 |
| 22 | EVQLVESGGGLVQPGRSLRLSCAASGFTFDDYAMHWVRQAPGKGLEWVSGISWNSGSIAYADSLKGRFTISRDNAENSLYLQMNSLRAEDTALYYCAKVGRGGGYFAYWGQGTLVTVSS | no signal | 0/3 | 0/9 |
| 23 | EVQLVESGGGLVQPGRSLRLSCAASDFTFDDYAMHWVRQAPGKGLEWVSGISWNSGSIGYTASVKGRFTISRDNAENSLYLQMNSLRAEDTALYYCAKVGRGGGYFDYWGQGTLVTVSS | no signal | 0/3 | 4/9 |
| 24 | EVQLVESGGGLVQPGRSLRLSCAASGFYFDDYAMHWVRQAPGKGLEWVSGISWNSGSIGYADSVKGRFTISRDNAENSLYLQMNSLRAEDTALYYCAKKGRGGGYFDYWGQGTLVTVSS | no signal | 0/3 | 1/9 |
| 25 | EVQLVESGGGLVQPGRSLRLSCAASGFTFEDYAMHWVRQAPGKGLEWVSGISWNSGSIGYADSVKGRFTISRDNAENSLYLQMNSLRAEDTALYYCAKVGRQGYYFDYWGQGTLVTVSS | 5.36 | 2/3 | 5/9 |
| 26 | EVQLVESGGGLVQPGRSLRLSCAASVFTFDDYAMAWVRQAPGKGLEWVSGRSWNSGSIGYADSVKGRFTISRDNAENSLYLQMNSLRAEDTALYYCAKVGRGGGYFDYWGQGTLVTVSS | 5.30 | 1/3 | 2/9 |

The opening 3 entries, copied out:

{"VH": "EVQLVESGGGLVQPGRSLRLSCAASGFTFDDYCMHWVRQAPGKGLEWVSGIDWNSGSIGYADSVKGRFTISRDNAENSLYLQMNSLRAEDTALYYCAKVGRGGEYFDYWGQGTLVTVSS", "mean log10 Kd (nM)": "5.44", "seen in": "3/3", "empty controls": "6/9"}
{"VH": "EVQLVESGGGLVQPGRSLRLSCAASGCTFDDIAMHWVRQAPGKGLEWVSGISWNSGSIHYADSVKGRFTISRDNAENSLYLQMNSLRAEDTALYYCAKVGRGGGYFDYWGQGTLVTVSS", "mean log10 Kd (nM)": "5.94", "seen in": "1/3", "empty controls": "1/9"}
{"VH": "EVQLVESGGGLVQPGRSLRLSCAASGFTFDDYAMHWVRQAPGKGLEWVSGISWQSGSIGYADNVKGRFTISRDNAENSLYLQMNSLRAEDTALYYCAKVGRGRGYFDYWGQGTLVTVSS", "mean log10 Kd (nM)": "no signal", "seen in": "0/3", "empty controls": "2/9"}